This note sets out measurements from patent publication US20110060009A1, “Hydroxamate-Based Inhibitors of Deacetylases” (NOVARTIS AG, priority 2009, published 2011).

Chains of the proteins cited; added tags and fusions are not shown.
UniProt Q13547, whole entry: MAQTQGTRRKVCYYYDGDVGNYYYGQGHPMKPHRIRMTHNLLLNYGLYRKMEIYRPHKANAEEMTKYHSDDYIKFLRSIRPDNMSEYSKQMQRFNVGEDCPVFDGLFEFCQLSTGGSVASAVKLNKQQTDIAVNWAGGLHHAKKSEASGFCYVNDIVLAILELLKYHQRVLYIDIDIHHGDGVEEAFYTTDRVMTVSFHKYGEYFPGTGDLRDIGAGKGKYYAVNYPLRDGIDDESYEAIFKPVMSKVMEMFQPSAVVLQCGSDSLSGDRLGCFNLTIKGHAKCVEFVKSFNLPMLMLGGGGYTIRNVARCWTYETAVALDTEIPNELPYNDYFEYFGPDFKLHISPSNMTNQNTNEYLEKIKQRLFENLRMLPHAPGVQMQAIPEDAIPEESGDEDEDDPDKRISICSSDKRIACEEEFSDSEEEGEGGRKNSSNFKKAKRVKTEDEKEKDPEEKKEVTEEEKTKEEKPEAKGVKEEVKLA

Each structure is given as a SMILES string.

One test concerns the target HDAC-1 (Homo sapiens, UniProt Q13547). The experiment in a line: HDAC Inhibition Assay (purified GST-HDAC protein). The note with it: read-out: HDAC-1 IC50, IC50 normalized to reference inhibitor. From the text:
The baculovirus donor vector pFB-GSTX3 is used to generate a recombinant baculovirus that expresses the HDAC polypeptide. Transfer vectors containing the HDAC coding region are transfected into the DH10Bac cell line (GIBCO) and plated on selective agar plates. Colonies without insertion of the fusion sequence into the viral genome (carried by the bacteria) are blue. Single, white colonies are picked and viral DNAs (bacmid) are isolated from the bacteria by standard plasmid purification procedures. Sf9 cells or Sf21 (American Type Culture Collection) cells are then transfected in […] flasks with the viral DNA using Cellfectin reagent.
Virus-containing media is collected from the transfected cell culture and used for infection to increase its titer. Virus-containing media obtained after two rounds of infection is used for large-scale protein expression. For large-scale protein expression 100 cm^2 round tissue culture plates are seeded with 5×10^7 cells/plate and infected with 1 mL of virus-containing media (at an approximately MOI of 5). After 3 days, the cells are scraped off the plate and centrifuged at 500 rpm for 5 minutes. Cell pellets from 10-20, 100 cm^2 plates, are re-suspended in 50 mL of ice-cold lysis buffer (25 mM tris-HCl, pH 7.5, 2 mM EDTA, 1% NP-40, 1 mM DTT, 1 mM P MSF). The cells are stirred on ice for 15 minutes and then centrifuged at 5,000 rpms for 20 minutes.
The centrifuged cell lysate is loaded onto a 2 mL glutathione-sepharose column (Pharmacia) and is washed thrice with 10 mL of 25 mM tris-HCl, pH 7.5, 2 mM EDTA, 1 mM DTT, 200 mM NaCl. […]
HDAC assays with purified GST-HDAC protein are carried out in a final volume of 30 μL containing 15 ng of GST-HDAC protein, 20 mM tris-HCl, pH 7.5, 1 mM MnCl2, 10 mM MgCl2, 1 mM DTT, 3 μg/mL poly(Glu,Tyr) 4:1, 1% DMSO, 2.0 μM ATP (γ-[^33P]-ATP 0.1 μCi). […] Membranes are counted after drying at ambient temperature, mounting in Packard TopCount 96-well frame, and addition of 10 μL/well of MICROSCINT™ (Packard). […]
Normalized IC50=measured IC50 average ref. IC50/measured ref. IC50

For another test, the system named is HCT116. Description: HCT116 IC50 (Table 2, no method described). The test is classed as cell-based. The note with it: read-out: HCT116 IC50.

By IC50 is commonly meant the midpoint of a concentration-inhibition curve. `O=C(/C=C/c1ccc(CN2CCC[C@@H]2Cn2ncc3ccccc32)cc1)NO`: the results for the IC50 on HDAC-1 and with HCT116 were 1.8 nM and 1 nM, respectively.
Take `O=C(/C=C/c1ccc(CN2CCC[C@@H]2Cn2cc3ccccc3n2)cc1)NO`: the 50% inhibitory concentration (IC50) was found to be 7 nM at HDAC-1 and 9 nM with HCT116.
The corresponding values for `Cc1[nH]c2ccccc2c1C[C@H]1C[C@H]2CCC[C@H]2N1Cc1ccc(/C=C/C(=O)NO)cc1` are 2 nM and 1.4 nM.
